According to ChEMBL document CHEMBL5724801, “EUbOPEN Chemogenomics Library - Multiplex” (2024):

Legend:
Type in all cases: toxicity, cell-based
[1] = test system: Fibroblast; assay: Multiplex assay against human fibroblast
[2] = test system: HEK-293T; assay: Multiplex assay against HEK293T; conditions: human
[3] = test system: U2OS; assay: Multiplex assay against U2OS; conditions: human, 0 h, 10 µM, compound concentration 10 uM
[4] = 0 h, 1 µM, compound concentration 1 uM
[5] = 0 h, 10 µM, compound concentration 10 uM
[6] = 12 h, 1 µM, compound concentration 1 uM
[7] = 12 h, 10 µM, compound concentration 10 uM
[8] = 24 h, 1 µM, compound concentration 1 uM
[9] = 24 h, 10 µM, compound concentration 10 uM
[10] = 48 h, 1 µM, compound concentration 1 uM
[11] = 48 h, 10 µM, compound concentration 10 uM

## CNC[C@H](O)c1ccc(O)c(O)c1 [EPINEPHRINE]
[1]; [4]
  Total Cell Count: 123 and 150
[1]; [5]
  Total Cell Count: 146
[1]; [6]
  Total Cell Count: 135 and 119
[1]; [7]
  Total Cell Count: 142
[1]; [8]
  Total Cell Count: 132 and 126
[1]; [9]
  Total Cell Count: 169 and 143
[1]; [10]
  Total Cell Count: 135 and 126
[1]; [11]
  Total Cell Count: 168 and 153
[2]; [4]
  Total Cell Count: 314 and 249
[2]; [5]
  Total Cell Count: 228 and 218
[2]; [6]
  Total Cell Count: 475
[2]; [7]
  Total Cell Count: 272 and 244
[2]; [8]
  Total Cell Count: 648 and 482
[2]; [9]
  Total Cell Count: 315 and 293
[2]; [10]
  Total Cell Count: 1107 and 678
[2]; [11]
  Total Cell Count: 486 and 312
[3]
  Total Cell Count: 175

Where “and” joins values, the source holds several entries; their conditions need not be identical. Equal entries are not always repeated.
